# Test results taken from PubChem BioAssay AID1956 (SRMLSC, 2009).
# The list shows a part of the results, in another mix than the full data. Some of these compounds have results that are not shown, active ones among them. Calls of active or inactive are those of the source. Rule as the data show it: active = maximum fold increase above about 1.5; inconclusive = no clear call, values can overlap the other calls; inactive = below that; tested in PC3 cells.
# Assay: compounds boosting herpes simplex virus growth – fold increase, host cell viability (AID 1956)
# Details: HSV replication augmentation in cells; at 0.781 µM, active compounds read high
row,SMILES,maximum fold increase
1,COc1cccc(C(=O)NCC2(N3CCCCC3)CCCCC2)c1,inactive
2,COc1ccc(Br)c(C(=O)NCC2(N3CCCCC3)CCCCC2)c1,inactive
3,CN(C)c1cccc(C(=O)NCC2(N(C)C)CCCCC2)c1,inactive
4,O=C(OC1CN2CCC1CC2)C(CO)(c1ccccc1)c1ccccc1 (stereo unspecified),inactive
5,CC(C)N1C(=O)CC2(CCN(CCOC(=O)C(O)(c3ccccc3)c3ccccc3)CC2)C1=O,inactive
6,CCN(CC)CC(C)C(C)OC(=O)C(O)(c1ccccc1)c1ccccc1 (stereo unspecified),inactive
7,O=C(NCC1(N2CCCCC2)CCCCC1)c1cc([N+](=O)[O-])ccc1Cl,inactive: 1.02
8,C=CCN1CCN(CCOC(=O)C(O)(c2ccccc2)c2ccccc2)CC1,inactive
9,CCN1CCCC(OC(=O)C2(O)c3ccccc3C=Cc3ccccc32)C1 (stereo unspecified),inactive
10,Cc1ccccc1C(=O)NCC1(N2CCCCC2)CCCCC1,inactive
11,CN(C)C1CCCC1OC(=O)C(O)(c1ccccc1)c1ccccc1 (stereo unspecified),inactive
